# Antibody variant affinities, Ab-14 heavy chain, assay B

Reference: Li et al. 2023, doi:10.1038/s41467-023-39022-2. File: FLAb, binding data.

All variants were tested on one target, the spike HR2 peptide PDVDLGDISGINAS (SARS-CoV-2).

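Phage display of a naive human antibody library on the peptide gave the parent. These sequences belong to a second round, designed from the earlier measurements on random variants of the parent. Group labels follow the data file (Ctrl: baseline library sampled from a position-specific scoring matrix, with some repeated check sequences; Rand: our label for a block that the file lists under HC and that is probably the random mutants of the ten best first-round binders; En: ensemble of fine-tuned language models; GP: Gaussian process model; GPLM: also part of the Gaussian process libraries; HC: hill climbing; Gen: genetic algorithm; Gibbs: Gibbs sampling; a sequence that several methods proposed may carry one label only). The assay is AlphaSeq: two haploid yeast populations carry antibody and antigen on their surface. Mating (16 h, 30 °C) was followed by selection of diploids and sequencing of their barcodes. The ratio of observed to expected reads was calibrated, replicate by replicate, on BCL2-family standards whose Kd was known from biolayer interferometry. Mating was done six times.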

Each scFv is VH, a 15-residue (Gly4Ser)3 linker, VL, as in the parent Ab-14, and differs from it in the CDRs of the heavy chain only.
VH: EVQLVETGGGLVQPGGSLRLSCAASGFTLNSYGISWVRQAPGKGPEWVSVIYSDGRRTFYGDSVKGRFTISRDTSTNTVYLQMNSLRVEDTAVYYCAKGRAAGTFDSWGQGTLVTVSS
VL: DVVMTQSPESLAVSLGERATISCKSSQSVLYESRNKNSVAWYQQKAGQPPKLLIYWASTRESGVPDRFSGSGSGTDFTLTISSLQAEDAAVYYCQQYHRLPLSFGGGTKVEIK

Variants are written as CDR1, CDR2 and CDR3 of the heavy chain (limits as in the source). Parent: GFTLNSYGIS, VIYSDGRRTFYGDSVK, GRAAGTFDS.
Numbers give log10(Kd / nM), so 0 is 1 nM and 3 is 1 µM. Smaller is tighter.
The mean shown is taken over the replicates in which the pair was detected.
A pair that was not seen in any replicate is written "nd"; this usually means weak binding, but a binder can also be missed.
Values of this round are not directly comparable with the first-round values of the same sequences.
As a blank, each scFv also met three strains without target: over all heavy chain designs, 1% of these pairings were detected, typically at 2.08 and seldom below 0.84.
The authors averaged sequences with at least three values out of six and counted those with two or fewer as poor binders.
Where one sequence has several entries in the source, the replicates are pooled.

CDR-H1 | CDR-H2 | CDR-H3 | group | mean log10 Kd (nM) | replicates with signal
GKDIEEYGIS | VIYADGMRQAYLDKVK | GNNGSSGLF | En_Gibbs | -0.48 | 1 of 6
GHDINEYGIS | VIYADGKRSQYAQDVK | GQNQGQGTT | En_Gibbs | nd | 0 of 6
GFGLDEYGIS | VIYADGMRAQYATNVK | GYEAGTFST | En_Gibbs | 0.88 | 1 of 6
GFDLNEYGIS | VIYADGVRSAYADSVK | GNVAGTFDV | En_Gen | -0.90 | 6 of 6
GFQLNDYGIS | VIYSDGRRTFYIDWVK | GKAAGTFDS | GP_HC | nd | 0 of 6
GFQLNEYGIS | VIYSDGRRTFYSDSVK | GKAAGTFDT | GP_Gibbs | -0.38 | 6 of 6
GFGLNSYGIS | VIYSDGRRTFYDDSVK | GLLAGTFDS | GP_HC | 1.23 | 6 of 6
GFSLNSYGIS | VIYSDGKRTFYGDSVK | GRTAGTFDS | GPLM_Gen | 0.33 | 6 of 6
GFGLNDYGIS | VIYSDGRRTFYIDRVK | GRAAGTFDS | GP_HC | 1.84 | 2 of 6
GFDLQEYGIS | VIYADGERRAYADKVK | GTHGGTRDI | En_Gibbs | nd | 0 of 6
GFYLNEYGIS | VIYSDGRRTFYGDSVK | GHAAGTFDK | GP_HC | 1.43 | 1 of 6
GFTLNSYGIS | VIYSDGRRTFYGDSVK | GSVAGTFDT | GPLM_Gen | 0.14 | 6 of 6
GFELNSYGIS | VIYADGRRTFYGDSVK | GRAAGTFDL | GP_Gen | -0.71 | 6 of 6
GFTLDSYGIS | VIYSDGRRTFYNDSVK | DRAVGTFDS | Ctrl | nd | 0 of 6
GFTLNEYGIS | VIYSDGRRTFYGDSVK | GRAALTFDC | GPLM_HC | nd | 0 of 6
GFDLEEYGIS | VIYADGKRTAYADSVK | GEVAGTFDV | En_Gen | -0.42 | 6 of 6
GFTLNSYGIS | VIYSDGKRTFYADSVK | GRAAGTFDS | Ctrl+GPLM_Gen | 0.94 | 12 of 12
GFTLNSYGIS | VIYSDGYRTFYGDDVK | GRAAGQFDS | Ctrl | nd | 0 of 6
GFDLNEYGIS | VIYADGRRTAYSDSVK | GEIAGTFDS | En_HC | -0.45 | 6 of 6
GFDLDEYGIS | VIYADGMRTAYADNVK | GETAGTFDI | En_Gen | 0.45 | 6 of 6
GFSLNEYGIS | VIYSDGRRTFYDDSVK | GKAAGTFDS | GP_Gen | -0.20 | 6 of 6
GFTLNSYGIS | VIYSDGQRTFYGDSVK | GKTAGTFDK | GP_Gibbs | 1.52 | 6 of 6
GFTLNSYGIS | VIYSDGQRTFYADSVK | GQAAGTFDS | GPLM_Gen | 0.67 | 6 of 6
GQQLDEYGIS | VIYADGVRTSYTNQVK | GEHAGTFMQ | En_Gibbs | nd | 0 of 6
GEDLMEYGIS | VIYADGERKSYVNSVK | GGVSVTFSS | En_Gibbs | -0.84 | 1 of 6
GFELNSYGIS | VIYSDGRRTFYGDSVK | GQAAGTFDD | GP_Gibbs | 1.99 | 1 of 6
GFTLNEYGIS | VIYSDGRRTFYGDSVK | GRAAVQFDQ | Rand | nd | 0 of 6
GFDLDEYGIS | VIYADGRRTYYADSVK | GTNAGTFDS | En_HC | -0.14 | 6 of 6
GEDLQEYGIS | VIYADGQRQEYSDDVK | GQVAGHFLV | En_Gibbs | 2.82 | 1 of 6
GFDLNEYGIS | VIYADGLRTAYADSVK | GQLAGTFDQ | En_HC | -0.63 | 6 of 6
TFTLNSYGLR | VIYADGRRTFYWDSVK | GRAAGTCKS | Rand | nd | 0 of 6
KFDIEEYGIS | VIYADGERTSYSNAVK | GNMGGTFQT | En_Gibbs | 1.42 | 1 of 6
GFQLNEYGIS | VIYSDGRRTFYADSVK | GTAAGTFDS | GP_Gibbs | 0.12 | 6 of 6
GFQLNTYGIS | VIYSDGRRTFYADSVK | GQAAGTFDS | GP_Gibbs | 0.49 | 6 of 6
GFDLNEYGIS | VIYADGMRTAYANDVK | GNQAGTFDV | En_Gen | -0.41 | 6 of 6
GFDLNEYGIS | VIYADGSRTAYADNVK | GEVAGTFDI | En_Gen | 0.04 | 6 of 6
GFTLNDYGIS | VINSDWRRTFYGDSVK | GRAALTFIS | Rand | nd | 0 of 6
GFTLNSYGIS | VIYSDGRRTSYADSVK | GRAAGTFDS | Ctrl | 1.08 | 6 of 6
GFELNEYGIS | VIYSDGRRTFYQDSVK | GRTAGTFDS | GP_Gen | 0.23 | 6 of 6
GFTLNEYGMS | VIYSDGRRTFYPDSVK | GRFAGTFDS | Rand | 0.22 | 2 of 6
GFSLNEYGIS | VIYSDGRRTFYTDSVK | GEQAGTFDS | GP_HC | 0.20 | 6 of 6
GFTLNSYGIS | VIYSDGRRTFYDDSVK | GRAAGTFFS | Ctrl | nd | 0 of 6
GFDLNEYGIS | VIYADGRRTAYIDSVK | GEAAGTFDS | En_HC | -0.61 | 6 of 6
GFDLNEYGIS | VIYADGKRTAYVDSVK | GGNAGTFDV | En_Gen | -0.47 | 6 of 6
GFPLNEYGIS | VIYSDGRRTFYGDSVK | GGAAGTFDS | GP_HC | nd | 0 of 6
GFTLNEYGIH | VIYSDGRRTFYKDSVK | GREKDTKDW | Ctrl | 1.01 | 4 of 6
GFDLNEYGIS | VIYADGMRTAYVDSVK | GEVAGTFDM | En_Gen | -0.13 | 6 of 6
GFQLNEYGIS | VIYSDGRRTFYQDSVK | GRAAGTFDT | GP_Gibbs | -0.49 | 6 of 6
GFTLQSYGIS | VIYSDGRKTAYGDSVK | GRAAGTFDS | Ctrl | 1.51 | 1 of 6
GFDLNEYGIS | VIYADGMRTAYVDSVK | GQNAGTFDL | En_Gen | -0.40 | 6 of 6
GFTLNQYGIS | VIYSDGRRTFYADSVK | GKAAGTFDS | GPLM_HC | 2.78 | 2 of 6
HFTLNSYGIS | VIYSDGRRTFYGDSVK | GRYAGTFDS | Ctrl | 2.09 | 2 of 6
GFDLNEYGIS | VIYADGRRTFYADSVK | GNAAGTFTL | En_HC | -0.04 | 6 of 6
GFGLGEYGIS | VIYADGRRTFYSDDVK | GNMIVNGVD | En_Gibbs | nd | 0 of 6
GFTLNSYGIS | VIYSDGRRTAYDDQVK | GRPAGTFDD | Ctrl | 0.98 | 6 of 6
GFELNSYGIS | VIYSDGRRTFYADDVK | GRAAGTFDS | GPLM_Gen | 0.31 | 6 of 6
GFQLNSYGIS | VIYADGRRTFYADSVK | GRAAGTFDW | Ctrl | 0.76 | 4 of 6
GFTLNSYGIS | VIYSDGHRTFYHDSVK | GQLAGTFDS | GPLM_HC | -0.37 | 4 of 6
GFTLNSYGIS | VIYSDGRRTFYGDSVK | GQTAGTFDQ | GP_Gibbs | 0.07 | 4 of 6
GFSLNSYGIS | VIYSDGRRTFYGDKVK | GRTAGTFWS | GP_Gibbs | nd | 0 of 6
GFNLNEYGIS | VIYADGRRTFYADSVK | GEAGGTFDV | En_HC | 0.28 | 6 of 6
GFDLNEYGIS | VIYADGKRTAYADDVK | GEVAGTFDV | En_Gen | -0.95 | 6 of 6
GFDLNEYGIS | VIYADGMRTQYIDSVK | GNAAGTFDL | En_HC | -0.15 | 6 of 6
GFDLNEYGIS | VIYADGMRTFYADSVK | GQAAGTFDI | En_HC | -0.11 | 6 of 6
GFDLNSYGIS | VIYSDGRRTFYQDSVA | GNHAGTFLS | Ctrl | 2.34 | 1 of 6
GFDLNSYGIS | VIYSDGRRTFYQDSVK | GKAAGTFDT | GP_Gibbs | 0.14 | 5 of 6
GFTLNMYGIS | VIYSDGRRTFYGDSVV | GGAAGTFDS | Ctrl | nd | 0 of 6
GFTLDSYGIS | VIYADGRRTFYGDAVK | GRTAGTFDS | GP_Gibbs | -0.14 | 5 of 6
GFTLNEYGIS | VIYSDGRRTFYADSVK | GRDAGTFDS | GP_HC | -0.14 | 6 of 6

Top 8 of the variants detected in all replicates, tightest first:

CDR-H1	CDR-H2	CDR-H3	group	mean log10 Kd (nM)	replicates with signal
GFDLNEYGIS	VIYADGKRTAYADDVK	GEVAGTFDV	En_Gen	-0.95	6 of 6
GFDLNEYGIS	VIYADGVRSAYADSVK	GNVAGTFDV	En_Gen	-0.90	6 of 6
GFELNSYGIS	VIYADGRRTFYGDSVK	GRAAGTFDL	GP_Gen	-0.71	6 of 6
GFDLNEYGIS	VIYADGLRTAYADSVK	GQLAGTFDQ	En_HC	-0.63	6 of 6
GFDLNEYGIS	VIYADGRRTAYIDSVK	GEAAGTFDS	En_HC	-0.61	6 of 6
GFQLNEYGIS	VIYSDGRRTFYQDSVK	GRAAGTFDT	GP_Gibbs	-0.49	6 of 6
GFDLNEYGIS	VIYADGKRTAYVDSVK	GGNAGTFDV	En_Gen	-0.47	6 of 6
GFDLNEYGIS	VIYADGRRTAYSDSVK	GEIAGTFDS	En_HC	-0.45	6 of 6